In PubChem BioAssay (NCI):
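All cell lines were grown in 96-well plates and treated with compound for 48 hours. At the GI50, growth is halved. TGI denotes the concentration required for complete inhibition of growth.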

Assays:
Experiment in all cases: NCI tumour cell line growth inhibition, 48 h
HCC-2998 colon = tested on: HCC-2998 colon
T-47D breast = tested on: T-47D breast
MALME-3M melanoma = tested on: MALME-3M melanoma
IGROV1 ovarian = tested on: IGROV1 ovarian
A549 NSCLC = tested on: A549 NSCLC
LOX IMVI melanoma = tested on: LOX IMVI melanoma
RXF 393 renal = tested on: RXF 393 renal
CCRF-CEM leukemia = tested on: CCRF-CEM leukemia
MOLT-4 leukemia = tested on: MOLT-4 leukemia
NCI-H23 lung = tested on: NCI-H23 lung
UO-31 renal = tested on: UO-31 renal
HS 578T breast = tested on: HS 578T breast
SK-MEL-2 melanoma = tested on: SK-MEL-2 melanoma
SK-MEL-28 melanoma = tested on: SK-MEL-28 melanoma
ACHN renal = tested on: ACHN renal
SK-MEL-5 melanoma = tested on: SK-MEL-5 melanoma
HCT-15 colon = tested on: HCT-15 colon
NCI/ADR-RES ovarian = tested on: NCI/ADR-RES ovarian
OVCAR-3 ovarian = tested on: OVCAR-3 ovarian
OVCAR-5 ovarian = tested on: OVCAR-5 ovarian
HOP-92 NSCLC = tested on: HOP-92 NSCLC
OVCAR-4 ovarian = tested on: OVCAR-4 ovarian
HOP-62 NSCLC = tested on: HOP-62 NSCLC
U251 CNS = tested on: U251 CNS
A498 renal = tested on: A498 renal
KM12 colon = tested on: KM12 colon
NCI-H522 lung = tested on: NCI-H522 lung
SNB-75 CNS = tested on: SNB-75 CNS
SW-620 colon = tested on: SW-620 colon
MDA-MB-435 = tested on: MDA-MB-435
CAKI-1 renal = tested on: CAKI-1 renal
MDA-N = tested on: MDA-N
NCI-H322M lung = tested on: NCI-H322M lung
HCT-116 colon = tested on: HCT-116 colon
SN12C renal = tested on: SN12C renal
SF-295 CNS = tested on: SF-295 CNS
UACC-257 melanoma = tested on: UACC-257 melanoma
NCI-H226 lung = tested on: NCI-H226 lung
NCI-H460 lung = tested on: NCI-H460 lung
HT29 colon = tested on: HT29 colon
BT-549 breast = tested on: BT-549 breast
SF-268 CNS = tested on: SF-268 CNS
SK-OV-3 ovarian = tested on: SK-OV-3 ovarian
RPMI-8226 leukemia = tested on: RPMI-8226 leukemia
TK-10 renal = tested on: TK-10 renal
COLO 205 colon = tested on: COLO 205 colon
SR leukemia = tested on: SR leukemia
MDA-MB-231 breast = tested on: MDA-MB-231 breast
EKVX NSCLC = tested on: EKVX NSCLC
MCF7 breast = tested on: MCF7 breast
UACC-62 melanoma = tested on: UACC-62 melanoma
HL-60(TB) leukemia = tested on: HL-60(TB) leukemia
PC-3 prostate = tested on: PC-3 prostate
786-0 renal = tested on: 786-0 renal
OVCAR-8 ovarian = tested on: OVCAR-8 ovarian
SNB-19 CNS = tested on: SNB-19 CNS
M14 melanoma = tested on: M14 melanoma
SF-539 CNS = tested on: SF-539 CNS

Compound: CC1=C[C@H]2O[C@@H]3C[C@H]4OC(=O)/C=C\C=C\C(C(C)O)OCC[C@@H](C)[C@H](O)C(=O)OC[C@@]2(CC1)[C@]4(C)[C@]31CO1 (stereo partly specified)
- GI50 (HCC-2998 colon): < 1 nM
- TGI (HCC-2998 colon): < 1 nM
- GI50 (T-47D breast): < 1 nM
- TGI (T-47D breast): 1.81 nM
- GI50 (MALME-3M melanoma): < 1 nM
- TGI (MALME-3M melanoma): < 1 nM
- GI50 (IGROV1 ovarian): < 1 nM
- TGI (IGROV1 ovarian): 1.88 nM
- GI50 (A549 NSCLC): < 1 nM
- TGI (A549 NSCLC): 2.73 nM
- GI50 (LOX IMVI melanoma): < 1 nM
- TGI (LOX IMVI melanoma): < 1 nM
- GI50 (RXF 393 renal): < 1 nM
- TGI (RXF 393 renal): 1.16 nM
- GI50 (CCRF-CEM leukemia): < 1 nM
- TGI (CCRF-CEM leukemia): 1.71 nM
- GI50 (MOLT-4 leukemia): < 1 nM
- TGI (MOLT-4 leukemia): < 1 nM
- GI50 (NCI-H23 lung): < 1 nM
- TGI (NCI-H23 lung): 1.49 nM
- GI50 (UO-31 renal): 1.07 nM
- TGI (UO-31 renal): 3.17 nM
- GI50 (HS 578T breast): < 1 nM
- TGI (HS 578T breast): 2.19 nM
- GI50 (SK-MEL-2 melanoma): < 1 nM
- TGI (SK-MEL-2 melanoma): 1.51 nM
- GI50 (SK-MEL-28 melanoma): < 1 nM
- TGI (SK-MEL-28 melanoma): < 1 nM
- GI50 (ACHN renal): < 1 nM
- TGI (ACHN renal): 4.23 nM
- GI50 (SK-MEL-5 melanoma): < 1 nM
- TGI (SK-MEL-5 melanoma): < 1 nM
- GI50 (HCT-15 colon): < 1 nM
- TGI (HCT-15 colon): < 1 nM
- GI50 (NCI/ADR-RES ovarian): 1.51 nM
- TGI (NCI/ADR-RES ovarian): 20 nM
- GI50 (OVCAR-3 ovarian): < 1 nM
- TGI (OVCAR-3 ovarian): < 1 nM
- GI50 (OVCAR-5 ovarian): 1.16 nM
- TGI (OVCAR-5 ovarian): 3.63 nM
- GI50 (HOP-92 NSCLC): < 1 nM
- TGI (HOP-92 NSCLC): 1.51 nM
- GI50 (OVCAR-4 ovarian): < 1 nM
- TGI (OVCAR-4 ovarian): < 1 nM
- GI50 (HOP-62 NSCLC): < 1 nM
- TGI (HOP-62 NSCLC): 2.61 nM
- GI50 (U251 CNS): < 1 nM
- TGI (U251 CNS): 5.45 nM
- GI50 (A498 renal): < 1 nM
- TGI (A498 renal): 2.72 nM
- GI50 (KM12 colon): < 1 nM
- TGI (KM12 colon): 1.88 nM
- GI50 (NCI-H522 lung): < 1 nM
- TGI (NCI-H522 lung): < 1 nM
- GI50 (SNB-75 CNS): < 1 nM
- TGI (SNB-75 CNS): 1.06 nM
- GI50 (SW-620 colon): < 1 nM
- TGI (SW-620 colon): 2.82 nM
- GI50 (MDA-MB-435): < 1 nM
- TGI (MDA-MB-435): 1.95 nM
- GI50 (CAKI-1 renal): 1.41 nM
- TGI (CAKI-1 renal): 6.39 nM
- GI50 (MDA-N): < 1 nM
- TGI (MDA-N): 1.46 nM
- GI50 (NCI-H322M lung): 2.35 nM
- TGI (NCI-H322M lung): 13.5 nM
- GI50 (HCT-116 colon): < 1 nM
- TGI (HCT-116 colon): 1.02 nM
- GI50 (SN12C renal): < 1 nM
- TGI (SN12C renal): 13.1 nM
- GI50 (SF-295 CNS): 1.13 nM
- TGI (SF-295 CNS): 3.66 nM
- GI50 (UACC-257 melanoma): < 1 nM
- TGI (UACC-257 melanoma): 2.31 nM
- GI50 (NCI-H226 lung): < 1 nM
- TGI (NCI-H226 lung): < 1 nM
- GI50 (NCI-H460 lung): < 1 nM
- TGI (NCI-H460 lung): < 1 nM
- GI50 (HT29 colon): < 1 nM
- TGI (HT29 colon): 1.03 nM
- GI50 (BT-549 breast): < 1 nM
- TGI (BT-549 breast): 76.6 nM
- GI50 (SF-268 CNS): 1.11 nM
- TGI (SF-268 CNS): 5.13 nM
- GI50 (SK-OV-3 ovarian): < 1 nM
- TGI (SK-OV-3 ovarian): 1.31 nM
- GI50 (RPMI-8226 leukemia): < 1 nM
- TGI (RPMI-8226 leukemia): < 1 nM
- GI50 (TK-10 renal): < 1 nM
- TGI (TK-10 renal): 2.64 nM
- GI50 (COLO 205 colon): < 1 nM
- TGI (COLO 205 colon): < 1 nM
- GI50 (SR leukemia): < 1 nM
- TGI (SR leukemia): < 1 nM
- GI50 (MDA-MB-231 breast): 2.17 nM
- TGI (MDA-MB-231 breast): 5.02 nM
- GI50 (EKVX NSCLC): 1.11 nM
- TGI (EKVX NSCLC): 4.09 nM
- GI50 (MCF7 breast): < 1 nM
- TGI (MCF7 breast): 11.1 nM
- GI50 (UACC-62 melanoma): < 1 nM
- TGI (UACC-62 melanoma): 2.03 nM
- GI50 (HL-60(TB) leukemia): < 1 nM
- TGI (HL-60(TB) leukemia): < 1 nM
- GI50 (PC-3 prostate): 1.14 nM
- TGI (PC-3 prostate): 2.59 nM
- GI50 (786-0 renal): 1.08 nM
- TGI (786-0 renal): 3.55 nM
- GI50 (OVCAR-8 ovarian): < 1 nM
- TGI (OVCAR-8 ovarian): 1.47 nM
- GI50 (SNB-19 CNS): < 1 nM
- TGI (SNB-19 CNS): 2.48 nM
- GI50 (M14 melanoma): < 1 nM
- TGI (M14 melanoma): < 1 nM
- GI50 (SF-539 CNS): < 1 nM
- TGI (SF-539 CNS): < 1 nM
